Reference: US10167295B2 (priority 2013, dated 2019)
Where two headings read alike, the source gives them in different places. This is a selection: effects in other tests are not listed, and their absence says nothing.

Protein sequences, listed by entry. Tags and fused reporters are not part of them.
UniProt P41146, whole entry: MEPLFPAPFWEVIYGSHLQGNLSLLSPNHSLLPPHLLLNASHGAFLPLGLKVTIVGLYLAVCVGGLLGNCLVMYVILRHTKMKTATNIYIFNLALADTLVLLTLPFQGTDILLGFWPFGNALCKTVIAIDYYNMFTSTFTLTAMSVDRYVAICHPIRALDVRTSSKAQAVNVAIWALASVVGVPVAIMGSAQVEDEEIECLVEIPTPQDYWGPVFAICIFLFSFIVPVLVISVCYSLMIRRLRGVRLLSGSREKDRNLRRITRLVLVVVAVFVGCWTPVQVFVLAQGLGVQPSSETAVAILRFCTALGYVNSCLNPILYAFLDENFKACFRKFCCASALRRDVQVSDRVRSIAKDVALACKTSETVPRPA
UniProt P41143, whole entry: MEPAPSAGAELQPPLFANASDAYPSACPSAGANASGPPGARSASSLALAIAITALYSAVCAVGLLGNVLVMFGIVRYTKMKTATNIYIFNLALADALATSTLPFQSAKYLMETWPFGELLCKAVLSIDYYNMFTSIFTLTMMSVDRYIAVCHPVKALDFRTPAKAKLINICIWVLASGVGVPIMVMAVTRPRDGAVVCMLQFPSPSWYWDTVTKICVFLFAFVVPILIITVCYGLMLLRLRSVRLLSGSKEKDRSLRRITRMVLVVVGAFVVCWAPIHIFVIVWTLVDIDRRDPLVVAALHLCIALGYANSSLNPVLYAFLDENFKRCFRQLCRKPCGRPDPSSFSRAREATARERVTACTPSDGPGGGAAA
UniProt P35372, whole entry: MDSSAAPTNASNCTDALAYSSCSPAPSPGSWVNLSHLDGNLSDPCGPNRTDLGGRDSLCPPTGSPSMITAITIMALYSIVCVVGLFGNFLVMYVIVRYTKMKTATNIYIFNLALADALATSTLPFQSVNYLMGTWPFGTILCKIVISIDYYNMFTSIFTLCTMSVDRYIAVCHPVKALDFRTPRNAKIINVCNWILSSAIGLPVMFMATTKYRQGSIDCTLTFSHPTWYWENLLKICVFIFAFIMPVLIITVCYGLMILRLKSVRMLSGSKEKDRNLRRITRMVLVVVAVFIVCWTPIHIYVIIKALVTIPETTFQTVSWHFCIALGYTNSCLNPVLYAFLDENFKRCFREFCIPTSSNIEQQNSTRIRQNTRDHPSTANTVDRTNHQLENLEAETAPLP

Key:
KOR [1] = biological target: T1, KOR (Homo sapiens, UniProt P41145); assay: Radioligand competition binding, Ki (PDSP); conditions: read-out: KOR Ki
NOP = NOP (Homo sapiens, UniProt P41146); assay: Functional NOP agonism, Tango agonist assay; assay type: cell-based; conditions: for NOP Tango Agonist: Table 7, values of Table 6; for NOP Tango Agonist, percent efficacy relative to cognate agonist: test compound at 10 micromolar
DOR = DOR (Homo sapiens, UniProt P41143); assay: Primary binding (PDSP); conditions: for DOR mean % inhibition: 10 μM, N = 4 determinations, negative = stimulation of binding; for DOR: Table 7, rounded values of Table 4
KOR [2] = biological target: T1, KOR; assay: Primary binding (PDSP); conditions: for KOR mean % inhibition: 10 μM, N = 4 determinations, negative = stimulation of binding; for KOR: Table 7, rounded values of Table 4
MOR = MOR (Homo sapiens, UniProt P35372); assay: Primary binding (PDSP); conditions: for MOR mean % inhibition: 10 μM, N = 4 determinations, negative = stimulation of binding; for MOR: Table 7, rounded values of Table 4
[3] = Cheng-Prusoff from best fit IC50

| SMILES | Ki (KOR [1]; [3]) [nM] | Ki (KOR [1]; Table 7, values of Table 5) [nM] | NOP Tango Agonist (NOP) | NOP Tango Agonist, percent efficacy relative to cognate agonist (NOP) [%] | DOR mean % inhibition (DOR) [%] | DOR (DOR) | KOR mean % inhibition (KOR [2]) [%] | KOR (KOR [2]) | MOR mean % inhibition (MOR) [%] | MOR (MOR) |
| --- | --- | --- | --- | --- | --- | --- | --- | --- | --- | --- |
| O=C(N[C@H]1CCCC[C@@H]1N1CCCC1)C1CCCN1Cc1ccccc1 (some centres unmarked) | 204 | 204 | −3.6 | −3.6 | 31.7472 | 32 | 61 | 61 | 2.7 | 3 |
| CN(C(=O)C1CCCN1Cc1ccccc1)[C@H]1CCCC[C@@H]1N1CCCC1 (some centres unmarked) | 146 | 146 | −4.7 | −4.7 | −2.84 | −3 | 68.8 | 69 | 14.1 | 14 |
